1 substance from patent US6383734 can be followed below.

For this series, the target named is recombinant His-tagged mouse PAK3 from Sf9 cells (UniProt Q61036).

As for GST-Rac1 charged with GTPγS, the “stimulation of the Raf-1 peptide and Raf-CR3 serine 338/339 kinase activity of PAK3” value was “stimulated up to six-fold by co-incubation with GST-Rac-GTPγS or GST-Cdc42-GTPγS”.
